Test results as given in ChEMBL document CHEMBL1131002, “2beta-Substituted analogues of 4'-iodococaine: synthesis and dopamine transporter binding potencies” (J Med Chem, 1998).

Sequences of proteins named here, by UniProt entry; tags and fusion partners are left off.
UniProt Q9WTR4, whole entry: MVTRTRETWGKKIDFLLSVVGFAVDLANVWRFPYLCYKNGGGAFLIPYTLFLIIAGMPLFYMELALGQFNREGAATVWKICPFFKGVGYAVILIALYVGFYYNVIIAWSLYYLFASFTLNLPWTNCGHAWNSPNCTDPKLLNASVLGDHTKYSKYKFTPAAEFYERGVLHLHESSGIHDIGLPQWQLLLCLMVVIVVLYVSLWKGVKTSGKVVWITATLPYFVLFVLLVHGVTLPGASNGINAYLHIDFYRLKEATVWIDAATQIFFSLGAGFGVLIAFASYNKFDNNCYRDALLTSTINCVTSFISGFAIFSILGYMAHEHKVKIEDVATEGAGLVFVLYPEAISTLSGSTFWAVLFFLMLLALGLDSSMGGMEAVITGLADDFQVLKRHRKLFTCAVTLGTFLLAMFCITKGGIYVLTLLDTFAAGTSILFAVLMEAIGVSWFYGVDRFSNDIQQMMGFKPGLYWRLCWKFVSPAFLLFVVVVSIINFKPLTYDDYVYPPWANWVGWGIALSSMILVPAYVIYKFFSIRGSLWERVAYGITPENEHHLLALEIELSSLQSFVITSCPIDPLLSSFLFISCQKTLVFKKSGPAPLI
UniProt P31652, whole entry: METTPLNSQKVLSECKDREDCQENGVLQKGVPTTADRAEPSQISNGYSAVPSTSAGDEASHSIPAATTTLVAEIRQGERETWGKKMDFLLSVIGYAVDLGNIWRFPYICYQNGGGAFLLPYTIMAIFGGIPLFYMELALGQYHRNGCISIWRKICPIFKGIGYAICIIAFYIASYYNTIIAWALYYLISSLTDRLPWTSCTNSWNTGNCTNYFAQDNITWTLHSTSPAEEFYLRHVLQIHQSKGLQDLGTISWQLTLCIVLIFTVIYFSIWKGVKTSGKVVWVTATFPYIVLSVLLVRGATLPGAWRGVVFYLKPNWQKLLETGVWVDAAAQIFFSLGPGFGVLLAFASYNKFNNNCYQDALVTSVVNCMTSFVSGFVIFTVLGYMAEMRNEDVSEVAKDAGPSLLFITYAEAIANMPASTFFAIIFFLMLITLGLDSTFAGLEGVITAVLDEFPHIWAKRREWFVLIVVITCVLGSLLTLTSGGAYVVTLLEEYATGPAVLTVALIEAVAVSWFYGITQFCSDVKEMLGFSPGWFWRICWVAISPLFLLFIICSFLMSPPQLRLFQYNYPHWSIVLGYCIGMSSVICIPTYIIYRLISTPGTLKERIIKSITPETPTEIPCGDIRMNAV

Tests used:
[1] = target: Norepinephrine transporter (Rattus norvegicus, UniProt Q9WTR4); experiment: Inhibition of norepinephrine Transporter Affinity against rat whole brain using [3H]nisoxetine radioligand
Method in brief: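 Whole brain minus cerebellum membranes in 50 mM Tris-HCl pH 7.4 with 300 mM NaCl and 5 mM KCl. Displacement of 0.7 nM [3H]nisoxetine. Incubated 40 min at 25 °C, then filtered on BSA-soaked GF/B. 1 μM desipramine defined nonspecific binding.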

[2] = target: Sodium-dependent serotonin transporter (Rattus norvegicus, UniProt P31652); experiment: Inhibition of serotonin Transporter Affinity against rat whole brain using [3H]paroxetine as radioligand

With `COC(=O)[C@H]1[C@@H](OC(=O)c2ccccc2)C[C@@H]2CC[C@H]1N2C` [COCAINE] the IC50 [1] was 2500 nM and the IC50 [2] was 615 nM.
